The values that follow come from ChEMBL document CHEMBL4007441, “Novel Design of Heptad Amphiphiles To Enhance Cell Selectivity, Salt Resistance, Antibiofilm Properties and Their Membrane-Disruptive Mechanism” (J Med Chem, 2017).

In one assay the test system is Staphylococcus aureus. Put plainly: Antibacterial activity against Staphylococcus aureus ATCC 29213 after 18 hrs by broth microdilution method. The note with it: ATCC 29213, 18 h. Type of assay: functional. In outline:
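Broth microdilution. Exponential-phase bacteria grown in MHB at 37 °C, diluted to about 1 × 10^6 CFU/mL in MHB and mixed 1:1 with two-fold dilutions of peptide. MIC is the lowest concentration with no visible turbidity after 18 h at 37 °C. Controls were uninoculated broth and peptide-free culture. At least three repeats, duplicates each.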

Assay [1] relates to Pseudomonas aeruginosa. The experiment in a line: Antibacterial activity against Pseudomonas aeruginosa ATCC 27853 after 18 hrs by broth microdilution method. Particulars: ATCC 27853, 18 h. Type of assay: functional. The method, boiled down:
(§1)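 Broth microdilution in Mueller-Hinton broth. Exponential-phase bacteria (37 °C, 220 rpm shaking) were diluted to about 1 × 10^6 CFU/mL and mixed 1:1 with two-fold serial peptide dilutions. MIC is the lowest concentration with no visible turbidity after 18 h at 37 °C. Controls were uninoculated MHB and untreated culture. Run at least three times, two replicates each.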
(Dilution methods test growth across graded concentrations, often in twofold steps.)

Assay [2] relates to Pseudomonas aeruginosa. Put plainly: Antibacterial activity against Pseudomonas aeruginosa CICC 10419 after 18 hrs by broth microdilution method. Type of assay: functional. Particulars: CICC 10419, 18 h. The method, boiled down: as §1
Assay [3] deals with Pseudomonas aeruginosa. Put plainly: Antibacterial activity against Pseudomonas aeruginosa CICC 21625 after 18 hrs by broth microdilution method. Type of assay: functional. Particulars: CICC 21625, 18 h. In outline: as §1
In assay [4] the test system is Pseudomonas aeruginosa. The experiment in a line: Antibacterial activity against Pseudomonas aeruginosa CICC 21630 after 18 hrs by broth microdilution method. Type of assay: functional. Particulars: CICC 21630, 18 h. The method, boiled down: as §1
For assay [5], the system named is Pseudomonas aeruginosa. Put plainly: Antibacterial activity against ciprofloxacin-resistant Pseudomonas aeruginosa 11411 after 18 hrs by broth microdilution method. Particulars: Pseudomonas aeruginosa, 11411, 18 h. Type of assay: functional. The method, boiled down: (§2)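 Broth microdilution in Mueller-Hinton broth. Exponential-phase bacteria (37 °C, 220 rpm shaking) were diluted to about 1 × 10^6 CFU/mL and mixed 1:1 with two-fold serial peptide dilutions. Controls were uninoculated MHB and untreated culture. Run at least three times, two replicates each.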

The subject of assay [6] is Pseudomonas aeruginosa. Put plainly: Antibacterial activity against gentamicin-resistant Pseudomonas aeruginosa 11421 after 18 hrs by broth microdilution method. Type of assay: functional. The note with it: Pseudomonas aeruginosa, 11421, 18 h. In outline:
as §2

The test system of assay [7] is Pseudomonas aeruginosa. The experiment in a line: Antibacterial activity against ceftazidime-resistant Pseudomonas aeruginosa 11431 after 18 hrs by broth microdilution method. Type of assay: functional. The note with it: Pseudomonas aeruginosa, 11431, 18 h. In outline: as §1
The subject of assay [8] is Pseudomonas aeruginosa. The experiment in a line: Antibacterial activity against Pseudomonas aeruginosa 21328 clinical isolate after 18 hrs by broth microdilution method. Type of assay: functional. The note with it: Pseudomonas aeruginosa, 21328, 18 h.
The test system of assay [9] is Pseudomonas aeruginosa. The experiment in a line: Antibacterial activity against Pseudomonas aeruginosa 25349 clinical isolate after 18 hrs by broth microdilution method. Type of assay: functional. Particulars: Pseudomonas aeruginosa, 25349, 18 h.
For assay [10], the system named is Pseudomonas aeruginosa. Put plainly: Antibacterial activity against Pseudomonas aeruginosa 26305 clinical isolate after 18 hrs by broth microdilution method. Type of assay: functional. The note with it: Pseudomonas aeruginosa, 26305, 18 h.
The test system of assay [11] is Pseudomonas aeruginosa. Put plainly: Antibacterial activity against Pseudomonas aeruginosa ATCC 27853 after 18 hrs in presence of NaCl by broth microdilution method. Type of assay: functional. Particulars: ATCC 27853, 18 h. In outline:
(§3)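 Broth microdilution MIC against ATCC 27853 in Mueller-Hinton broth with added salt at final concentrations: NaCl 150 mM, KCl 4.5 mM, NH4Cl 6 µM, ZnCl2 8 µM, FeCl3 4 µM. Inoculum about 1 × 10^6 CFU/mL from exponential phase, mixed 1:1 with two-fold peptide dilutions. MIC read as no visible turbidity after 18 h at 37 °C.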

Assay [12] deals with Pseudomonas aeruginosa. The experiment in a line: Antibacterial activity against Pseudomonas aeruginosa ATCC 27853 after 18 hrs in presence of KCl by broth microdilution method. Type of assay: functional. The note with it: ATCC 27853, 18 h. In outline: as §3
Assay [13] relates to Pseudomonas aeruginosa. Put plainly: Antibacterial activity against Pseudomonas aeruginosa ATCC 27853 after 18 hrs in presence of NH4Cl by broth microdilution method. Type of assay: functional. The note with it: ATCC 27853, 18 h. The method, boiled down:
as §3

Assay [14] has as its system Pseudomonas aeruginosa. Put plainly: Antibacterial activity against Pseudomonas aeruginosa ATCC 27853 after 18 hrs in presence of ZnCl2 by broth microdilution method. Type of assay: functional. Particulars: ATCC 27853, 18 h. In outline:
as §3

Assay [15] has as its system Pseudomonas aeruginosa. Put plainly: Antibacterial activity against Pseudomonas aeruginosa ATCC 27853 after 18 hrs in presence of MgCl2 by broth microdilution method. The note with it: ATCC 27853, 18 h. Type of assay: functional. In outline: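 Broth microdilution MIC in MHB against the reference strain. About 1 × 10^6 CFU/mL exponential-phase inoculum mixed 1:1 with two-fold peptide dilutions in medium containing 1 mM MgCl2 (final). Lowest concentration with no visible turbidity after 18 h at 37 °C.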

Assay [16] has as its system Pseudomonas aeruginosa. The experiment in a line: Antibacterial activity against Pseudomonas aeruginosa ATCC 27853 after 18 hrs in presence of FeCl3 by broth microdilution method. Type of assay: functional. The note with it: ATCC 27853, 18 h. The method, boiled down:
as §3

The subject of the next assay is Escherichia coli. Put plainly: microbe, parasite or virus in culture. The note with it: ATCC 25922, 18 h.

Structures are written as SMILES. ≈ marks a conversion by molar mass, not a printed value.

Regarding `CC[C@H](C)[C@H](NC(=O)CN)C(=O)NCC(=O)N[C@@H](C)C(=O)N[C@H](C(=O)N[C@@H](CC(C)C)C(=O)N[C@@H](CCCCN)C(=O)N[C@H](C(=O)N[C@@H](CC(C)C)C(=O)N[C@H](C(=O)N[C@H](C(=O)NCC(=O)N[C@@H](CC(C)C)C(=O)N1CCC[C@H]1C(=O)N[C@@H](C)C(=O)N[C@@H](CC(C)C)C(=O)N[C@H](C(=O)N[C@@H](CO)C(=O)N[C@@H](Cc1c[nH]c2ccccc12)C(=O)N[C@H](C(=O)N[C@@H](CCCCN)C(=O)N[C@@H](CCCNC(=N)N)C(=O)N[C@@H](CCCCN)C(=O)N[C@@H](CCCNC(=N)N)C(=O)N[C@@H](CCC(N)=O)C(=O)N[C@@H](CCC(N)=O)C(N)=O)[C@@H](C)CC)[C@@H](C)CC)[C@@H](C)O)[C@@H](C)O)C(C)C)C(C)C` [MELITTIN], the MIC with Staphylococcus aureus was 8 µg/mL (≈ 2.81 µM); in the assay with Pseudomonas aeruginosa [1], 4 µg/mL (≈ 1.41 µM); against Pseudomonas aeruginosa [2], 8 µg/mL (≈ 2.81 µM); in the assay with Pseudomonas aeruginosa [3], 16 µg/mL (≈ 5.62 µM); against Pseudomonas aeruginosa [4], 8 µg/mL (≈ 2.81 µM); against Pseudomonas aeruginosa [5], 4 µg/mL (≈ 1.41 µM). For the same molecule, the MIC came to 8 µg/mL (≈ 2.81 µM) in the assay on Pseudomonas aeruginosa [6]; 8 µg/mL (≈ 2.81 µM) against Pseudomonas aeruginosa [7]; 4 µg/mL (≈ 1.41 µM) with Pseudomonas aeruginosa [8]; 4 µg/mL (≈ 1.41 µM) in the assay on Pseudomonas aeruginosa [9]; 2 µg/mL (≈ 0.703 µM) against Pseudomonas aeruginosa [10]; 64 µg/mL with Pseudomonas aeruginosa [11]. The MIC in the assay with Pseudomonas aeruginosa [12] stood at 8 µg/mL; in the assay with Pseudomonas aeruginosa [13], 8 µg/mL; in the assay with Pseudomonas aeruginosa [14] it was 8 µg/mL; with Pseudomonas aeruginosa [15], 32 µg/mL; in the assay with Pseudomonas aeruginosa [16], 16 µg/mL; against Escherichia coli, 2 µg/mL (≈ 0.703 µM).
